Laboratory results from patent US7902348B2, “Janus family kinases and identification of immune modulators” (The United States of America as represented by the …, priority 1995, dated 2011).

Experiments:
Assay type in all cases: cell-based, human
JAK-3 [1] = test: Time course of IL-2 induced JAK-3 tyrosine phosphorylation in Hut78 cells (Example 7); settings: Hut78 cells treated with IL-2 for 5, 10 or 30 minutes
Procedure: Cells were either unstimulated or stimulated with IL-2 (1000 U/ml) for 5 minutes, then lysed, immunoprecipitated with anti-JAK-3 antisera and immunoblotted and probed with a monoclonal antiphosphotyrosine antibody (4G10 UBI). In this procedure, cells were washed twice with RPMI that had been acidified at pH 6.5 before incubation for 3 hours with 0.5% human serum. The cells were again washed twice before stimulation with IL-2. The cells were lysed in buffer containing TRITON™ X-100 detergent prior to the immunoprecipitation procedure. Detection of the antiphosphotyrosine antibody probe bound to the 125 kDa JAK-3 protein band was by autoradiography.
Lysates from Hut78 cells either untreated or treated with IL-2 for 5, 10 or 30 minutes were immunoprecipitated with anti-JAK-3 and blotted with antiphosphotyrosine antibody and with anti-JAK-3. […] JAK-3 was also found to be phosphorylated in response to IL-2 in human peripheral blood T-cells that had been pre-activated with PHA for 24 hours. Thus in human T and NK cells, T-cell and NK cell lines, IL-2 induced the rapid tyrosyl phosphorylation of JAK-3 protein.

JAK-3 [2] = test: IL-2 stimulated JAK-3 in vitro kinase activity in immunoprecipitates (Example 9); settings: YT cells, IL-2 1000 U/ml for 0, 10 or 20 minutes
Procedure: Cells were treated with IL-2 (1000 U/ml) for 0, 10 or 20 minutes. In vitro kinase activity was measured in anti-JAK-3 immunoprecipitates. For measurement of in vitro kinase activity, immunoprecipitates were washed in 50 mM NaCl, 5 mM MgCl2, 5 mM MnCl2, 0.1 mM Na3VO4, 10 mM HEPES (pH 7.4) and incubated in the same buffer containing 0.25 μCi/ml [^32P-γ] ATP for 15 minutes at room temperature. After three washes, proteins were eluted in sample buffer and analyzed by SDS-PAGE. Gels were either dried or transferred to IMMOBILON™ membrane before exposure. Autophosphorylation signals were detected by autoradiography of the dried gels. JAK-3 in vitro kinase activity in response to IL-2 stimulation (15 minutes) was measured in immunoprecipitates from peripheral blood NK cells and Hut78 cells. […] Similar results were obtained using human peripheral blood NK cells and Hut78 cells. This kinase activity was not precipitated by preimmune serum or in the presence of competing JAK-3 peptide.

JAK-3 [3] = test: Cytokine-induced tyrosine phosphorylation of JAK-3 in NK 3.3 cells (Example 10); settings: 5 or 15 minutes stimulation
Procedure: (§1) YT cells were serum-starved for 3 hours and acid washed twice before stimulation and immunoprecipitation. NK 3.3 cells were grown for 2 days in 10% lymphocult (Biotest) and 15% fetal bovine serum before being washed and incubated in 2% serum. Commercial polyclonal anti-JAK-1 and JAK-2 antisera were obtained from UBI and Tyk2 polyclonal antiserum from Santa Cruz Biotechnology.
In related procedures, NK 3.3 cells that were incubated overnight in 2% serum were stimulated with IL-2 (1000 U/ml), IL-4 (100 U/ml) or IFN-γ (500 U/ml) for 5 or 15 minutes. Cellular lysates were immunoprecipitated with anti-JAK-3 and blotted with antiphosphotyrosine.

JAK-3 [4] = test: Cytokine-induced tyrosine phosphorylation of JAK-3 in YT cells (Example 10); settings: 15 minutes stimulation, anti-JAK-3 IP, antiphosphotyrosine blot
Procedure: as §1

| Molecule | time of maximal JAK-3 tyrosine phosphorylation (JAK-3 [1]) | time of peak JAK-3 kinase activity (JAK-3 [2]) | JAK-3 tyrosine phosphorylation (JAK-3 [3]) | JAK-3 tyrosine phosphorylation (JAK-3 [4]) |
| --- | --- | --- | --- | --- |
| IL-2: T-cell lymphokine, autocrine growth factor | 10 min | approximately 10 minutes | tyrosine phosphorylated | tyrosine phosphorylated |
| IL-3: lymphokine shown to activate JAK-2 (protein, UniProt P08700 20-152, looked up) Interleukin-3: APMTQTTPLKTSWVNCSNMIDEIITHLKQPPLPLLDFNNLNGEDQDILMENNLRRPNLEAFNRAVKSLQNASAIESILKNLLPCLPLATAAPTRHPIHIKDGDWNEFRRKLTFYLKTLENAQAQQTTLSLAIF | – | – | – | not phosphorylated |
